Chains of the proteins cited; added tags and fusions are not shown.
UniProt Q99J99, whole entry: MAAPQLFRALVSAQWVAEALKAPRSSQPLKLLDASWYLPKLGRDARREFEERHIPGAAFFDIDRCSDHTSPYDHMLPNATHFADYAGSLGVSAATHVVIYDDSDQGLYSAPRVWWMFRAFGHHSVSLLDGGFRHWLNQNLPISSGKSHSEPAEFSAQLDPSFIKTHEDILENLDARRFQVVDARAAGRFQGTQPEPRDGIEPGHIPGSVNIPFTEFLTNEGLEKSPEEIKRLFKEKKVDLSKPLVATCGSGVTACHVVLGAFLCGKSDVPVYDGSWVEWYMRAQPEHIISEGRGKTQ

In paper PMC5228037, “Discovery and Mechanistic Characterization of Selective Inhibitors of H2S-producing Enzyme: 3-Mercaptopyruvate Sulfurtransferase (3MST) Targeting Active-site Cysteine Persulfide” (Scientific Reports, 2017):

Tests used:
[1] = Reactivity test toward 3MP and DTT (2nd screening, no enzyme); details: 50 μM 3MP, 40 μM DTT, no 3MST, mean±S.D. n = 4
Procedure: Reactivity of the hit compounds toward 3MP and DTT was examined. The final concentration of the compounds was 10 or 50 μM. The assay protocol was as follows: compounds were diluted with HSip-1 solution to 20 or 100 μM solution (10% DMSO) with a Multi-Drop Combi. Next, 3MP and DTT solution (10 μL, final concentrations: 50 μM 3MP and 40 μM DTT) was dispensed into the plates (total volume was 20 μL, 5% DMSO), and the plates were incubated at room temperature for 3 hr. The fluorescence of HSip-1 was measured (λex = 485 nm, λem = 520 nm) with a microplate reader (PHERAstar PLUS). Background control wells (i.e., no addition wells instead of addition of 3MP and DTT, n = 16) were also prepared for all plates.
Supplementary Note 3. […]
The second screening, which is a non-enzymatic assay, was performed to eliminate false-positive hit compounds such as naphthoquinone that react with the substrates, e.g., 3MP and DTT. Even in […]
μM 3MP and 40 μM DTT. The fluorescence increase in the presence or the absence of 3MP and DTT was regarded as 100% or 0% fluorescence signal, respectively, and we evaluated the ability of each compound (10 μM and 50 μM) to inhibit the fluorescence increase caused by the reaction with 3MP and DTT. In this assay, we selected compounds showing ‒25% ≤ inhibitory activity at both 10 and 50 μM ≤ 50% (545 compounds). Then, we further selected compounds showing more than 60% inhibitory activity in the previous confirmation test among 545 compounds (146 hit compounds) (Supplementary Fig. S7). These compounds were considered not to react with 3MP and DTT, at least in this concentration range. […]

[2] = Reactivity test toward H2S (3rd screening, cysteine-activated H2S donor); details: 40 μM H2S donor, 1 mM L-cysteine, 37 °C 60 min, mean±S.D. n = 4
Procedure: Reactivity of the hit compounds toward H2S was next examined. The final concentration of the compounds was 10 or 30 μM. The assay protocol was as follows. Compounds were diluted with HSip-1 and cysteine-activated H2S donor[22] solution to 20 or 60 μM solution (15.4% DMSO) with a Multi-Drop and a pipette. Next, 2 mM L-cysteine solution (10 μL, final concentration: 1 mM L-cysteine) was dispensed into the plates (total volume was 20 μL, DMSO 7.7%), and the plates were incubated at 37 °C for 1 hr. The fluorescence of HSip-1 was measured (λex = 490 nm, λem = 510 nm) with a microplate reader. Background control wells (i.e., no addition wells instead of addition of the cysteine-activated H2S donor, n = 16) were also prepared for all plates.
Supplementary Table S2. Inhibition (%) of fluorescence increase caused by H2S in the 3rd […]
Compound 10 µM Compound 30 µM Compound 10 µM Compound 30 µM
All data are presented as the mean±S.D. (n = 4). Conditions: Mixtures of 1 μM HSip-1, 10 or 30 μM test compound, 40 μM H2S donor, 1 mM ʟ-cysteine, and 7.7% DMSO (v/v) were incubated at 37 °C for 60 min. The control with DMSO alone instead of DMSO solution of test compound was taken as 0% inhibition, and the sample without H2S donor was taken as 100% inhibition. […]
directly react with H2S: For this assay, we synthesized a reported small-molecular H2S donorS2 that produces H2S by reacting with cysteine. Each compound (10 or 30 μM) was dissolved in a solution (30 mM HEPES buffer (pH 7.4)) containing 1 μM HSip-1, 40 μM H2S donor, 1 mM ʟ-cysteine and 7.7% (v/v) DMSO as a cosolvent, and the solution was incubated at 37 °C for 60 min. Then, the fluorescence intensities were measured to evaluate the amount of H2S in the solution (Supplementary Table S2). Based on the results of the titration test and the third screening, we […]
while compounds 6-8 appeared to react with H2S. […]

[3] = target: GST-fused m3MST (GST-3MST) (Mus musculus, UniProt Q99J99); test: 3MST inhibitor screening with H2S fluorescent probe HSip-1 (confirmation test, titration test); details: HSip-1 fluorescence, room temperature 3 hr; for Inhibition of 3MST, confirmation test: 10 μM compound, 50 μM 3MP, 40 μM DTT, mean±S.D. n = 4; for IC50: read-out: IC50 of 3MST inhibition (titration test), 0.25, 1, 3, 10, 30 μM compound, 3MP and DTT

SMILES: O=C1C=C(Cl)C(=O)c2c(O)cccc21
- No Enzyme: inhibition of HSip-1 fluorescence increase caused by 3MP and DTT ([1]; 10 μM compound): 46.3±0.5%
- No Enzyme: inhibition of HSip-1 fluorescence increase caused by 3MP and DTT ([1]; 50 μM compound): 42.4±3.2%
- Inhibition (%) of fluorescence increase caused by H2S in the 3rd screening ([2]; 10 μM compound): 4.2±3.6%
- Inhibition (%) of fluorescence increase caused by H2S in the 3rd screening ([2]; 30 μM compound): 18.6±14.5%
- Inhibition of 3MST, confirmation test [3]: 114.5±0.7%
- IC50 [3]: 0.68 µM

SMILES: Cc1cnc2c(ccc3c(C)c(C)cnc32)c1C
- No Enzyme: inhibition of HSip-1 fluorescence increase caused by 3MP and DTT ([1]; 10 μM compound): 23.1±10.6%
- No Enzyme: inhibition of HSip-1 fluorescence increase caused by 3MP and DTT ([1]; 50 μM compound): 23.7±3.6%
- Inhibition (%) of fluorescence increase caused by H2S in the 3rd screening ([2]; 10 μM compound): 91.4±1.3%
- Inhibition (%) of fluorescence increase caused by H2S in the 3rd screening ([2]; 30 μM compound): 86.6±1.0%
- Inhibition of 3MST, confirmation test [3]: 114.6±0.5%
- IC50 [3]: 2.1 µM

SMILES: CC(CNC(=O)c1ccc(C2CCN(C(=O)c3ccccn3)CC2)nc1)N1CCCCCC1 (stereo not drawn)
- No Enzyme: inhibition of HSip-1 fluorescence increase caused by 3MP and DTT ([1]; 10 μM compound): 18.3±10.6%
- No Enzyme: inhibition of HSip-1 fluorescence increase caused by 3MP and DTT ([1]; 50 μM compound): 24.8±4.7%
- Inhibition (%) of fluorescence increase caused by H2S in the 3rd screening ([2]; 10 μM compound): 41.2±7.4%
- Inhibition (%) of fluorescence increase caused by H2S in the 3rd screening ([2]; 30 μM compound): 99.1±0.9%
- Inhibition of 3MST, confirmation test [3]: 60.5±6.7%
- IC50 [3]: 14.2 µM

SMILES: Cc1nc2ccc(N=NN(C)C)cc2[nH]1
- No Enzyme: inhibition of HSip-1 fluorescence increase caused by 3MP and DTT ([1]; 10 μM compound): 27.8±3.8%
- No Enzyme: inhibition of HSip-1 fluorescence increase caused by 3MP and DTT ([1]; 50 μM compound): 14.2±1.6%
- Inhibition (%) of fluorescence increase caused by H2S in the 3rd screening ([2]; 10 μM compound): 95.9±0.9%
- Inhibition (%) of fluorescence increase caused by H2S in the 3rd screening ([2]; 30 μM compound): 95.0±3.8%
- Inhibition of 3MST, confirmation test [3]: 79.6±0.3%
- IC50 [3]: 9.4 µM
